Data taken from ChEMBL document CHEMBL4020710, “Discovery and evaluation of the hybrid of bromophenol and saccharide as potent and selective protein tyrosine phosphatase 1B inhibitors” (Eur J Med Chem, 2017).

Biological target: T1, Tyrosine-protein phosphatase non-receptor type 1 (Homo sapiens, UniProt P18031)
T1 sequence (P18031 whole entry): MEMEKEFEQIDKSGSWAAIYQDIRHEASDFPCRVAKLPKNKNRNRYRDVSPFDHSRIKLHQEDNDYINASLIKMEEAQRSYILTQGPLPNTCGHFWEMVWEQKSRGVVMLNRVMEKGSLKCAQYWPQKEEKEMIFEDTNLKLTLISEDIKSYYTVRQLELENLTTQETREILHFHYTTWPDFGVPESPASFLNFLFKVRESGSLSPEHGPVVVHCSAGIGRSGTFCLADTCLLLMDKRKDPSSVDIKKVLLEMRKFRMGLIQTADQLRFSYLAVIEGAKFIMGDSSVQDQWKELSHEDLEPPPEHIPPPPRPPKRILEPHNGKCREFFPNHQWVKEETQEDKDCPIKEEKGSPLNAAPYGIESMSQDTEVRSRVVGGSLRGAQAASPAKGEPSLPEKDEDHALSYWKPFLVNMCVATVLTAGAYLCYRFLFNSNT
Assay: Inhibition of PTP1B (unknown origin) using p-NPP as substrate measured every 30 secs for 15 mins

IC50: 18 nM
Compound: CCc1cc(C[C@H](NC(C)=O)C(=O)NCCCCOc2cccc(O)c2C(=O)OC)ccc1N(C(=O)C(=O)O)c1ccccc1C(=O)O
